Test results as given in ChEMBL document CHEMBL5365420, “Kinetics, Thermodynamics, and Structural Effects of Quinoline-2-Carboxylates, Zinc-Binding Inhibitors of New Delhi Metallo-β-lactamase-1 Re-sensitizing Multidrug-Resistant Bacteria for Carbapenems” (J Med Chem, 2023).

Amino acid sequences for entries named in this document (tags omitted). A change or cut given only in a name is not applied to a line headed by its entry.
UniProt C7C422: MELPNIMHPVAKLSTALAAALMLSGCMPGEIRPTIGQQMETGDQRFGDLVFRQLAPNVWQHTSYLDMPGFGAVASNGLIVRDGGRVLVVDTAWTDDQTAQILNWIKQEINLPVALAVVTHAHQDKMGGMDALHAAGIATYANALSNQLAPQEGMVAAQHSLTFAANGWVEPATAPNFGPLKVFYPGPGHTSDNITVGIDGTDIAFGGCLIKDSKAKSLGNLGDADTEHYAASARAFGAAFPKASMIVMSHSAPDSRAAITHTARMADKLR

Target: Metallo-beta-lactamase type 2 (Bacteria, UniProt C7C422)

| IC50 | SMILES |
| --- | --- |
| 3 µM | Oc1c(I)cc(Cl)c2cccnc12 [CLIOQUINOL] |
| 28 µM | Oc1ccc(Cl)c2cccnc12 [CLOXYQUIN] |
